Source: article PMC10552397, “The Golgi stacking protein GRASP55 is targeted by the natural compound prodigiosin” (Cell Communication and Signaling : CCS, 2023)

Tests used:
JUNB = assay: TPP-TR/RTSA, JUNB; type: binding, Homo sapiens; conditions: abundance, treatment vs control at 36.5 °C
Procedure: (§1) TPP was performed essentially as described, but with major modifications to the TMT labeling sets and statistical data analysis for TPP-TR.
(§2) For thermal proteome profiling temperature range (TPP-TR) experiments, 6*10^6 HeLa wt cells were seeded per 15 cm dish and, on the next day, incubated with 100 nM prodigiosin (final concentration in final 0.1% v/v DMSO in cell culture medium) or 0.1% v/v DMSO in cell culture medium as vehicle control for 6 h. […]
(§3) After temperature treatment, samples were supplemented with lysis buffer (final concentrations: 0.36 U/µL benzonase, 1.5 mM MgCl2, 1 mM Na3VO4, 10 mM NaF, 2.5 mM Na4P2O7, 0.8% w/v NP-40) for 1 h on ice. […] The total protein concentration of the resulting cell extracts containing the fraction of soluble, non-denatured proteins was determined (Pierce 660 nm Protein Assay, BSA as standard). […] The two (37 °C or 50 °C) x ten (concentrations) x three (replicates) = 60 TPP-CCR samples and two (treatment and control) x ten (temperatures) x three (replicates) = 60 TPP-TR samples were analyzed by LC–MS/MS. GRASP55 was additionally quantified from the TPP-TR samples by immunoblotting as described in the respective section. […]

EFEMP1 = molecular target: T1, EFEMP1 (Homo sapiens, UniProt Q12805); assay: TPP-TR/RTSA, EFEMP1; type: binding; conditions: abundance, treatment vs control at 36.5 °C
T1 construct: endogenous in cells; host or cells: HeLa wt cells
T1 sequence (Q12805 18-493): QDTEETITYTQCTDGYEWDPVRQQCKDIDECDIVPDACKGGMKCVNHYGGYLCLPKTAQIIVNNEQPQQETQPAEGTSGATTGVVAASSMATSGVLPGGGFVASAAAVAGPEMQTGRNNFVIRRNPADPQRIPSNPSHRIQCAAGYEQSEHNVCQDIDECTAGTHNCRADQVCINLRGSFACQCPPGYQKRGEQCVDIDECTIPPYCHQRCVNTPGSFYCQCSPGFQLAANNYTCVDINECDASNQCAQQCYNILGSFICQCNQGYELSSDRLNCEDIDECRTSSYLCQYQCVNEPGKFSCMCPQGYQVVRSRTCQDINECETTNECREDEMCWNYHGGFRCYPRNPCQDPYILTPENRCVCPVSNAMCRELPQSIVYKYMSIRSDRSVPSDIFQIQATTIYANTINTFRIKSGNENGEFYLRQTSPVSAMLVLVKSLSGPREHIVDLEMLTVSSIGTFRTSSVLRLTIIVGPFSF
Procedure: as §1, §2, §3

JUN = assay: TPP-TR/RTSA, JUN; type: binding, Homo sapiens; conditions: abundance, treatment vs control at 36.5 °C
Procedure: as §1, §2, §3

SDC4 = molecular target: T2, SDC4 (Homo sapiens, UniProt P31431); assay: TPP-TR/RTSA, SDC4; type: binding; conditions: abundance, treatment vs control at 36.5 °C
T2 construct: endogenous in cells; host or cells: HeLa wt cells
T2 sequence (P31431 19-198): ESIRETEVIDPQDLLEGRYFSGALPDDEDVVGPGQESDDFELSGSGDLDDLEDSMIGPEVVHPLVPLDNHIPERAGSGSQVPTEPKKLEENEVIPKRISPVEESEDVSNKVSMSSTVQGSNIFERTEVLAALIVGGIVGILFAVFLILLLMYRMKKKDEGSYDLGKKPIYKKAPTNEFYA
Procedure: as §1, §2, §3

HeLa wt cells = assay: Transmission electron microscopy of Golgi apparatus, HeLa wt; type: cell-based; conditions: 10 nM, 24 h, vs DMSO
Procedure: (§4) HeLa wt and HeLa GRASP55 KO cells were seeded into 10 cm dishes. On the next day, cells were treated with 0.1% DMSO, 10 nM prodigiosin or 100 nM prodigiosin for 24 h. After treatment, cells were washed with Dulbecco´s phosphate-buffered saline (DPBS, Thermo Fisher Scientific, Waltham, MA, USA, #14,190,250) and then fixed using 2.5% glutaraldehyde and 4% paraformaldehyde in 0.1 M sodium cacodylate, pH 7.4 overnight at 4 °C. Then, cells were harvested with a cell scraper and centrifuged at 4,000 × g for 5 min. Cell pellets were washed twice with 0.1 M sodium cacodylate buffer, pH 7.2, then heated to 40 °C and embedded into 3% low melting agarose. The agarose was dissolved at 40 °C in a water bath and after aspiration of the supernatant a volume of approximately 10 µL was left, which was resuspended in agarose. After centrifugation at approximately 4,000 x g for 2 min, the samples were covered with 1% OsO4 in 0.1 M sodium cacodylate buffer for 60 min at RT. After washing two times with sodium cacodylate buffer for 10 min and twice with 70% EtOH for 15 min at RT, block contrast was applied using 1% uranyl acetate/1% phosphorotungstic acid in 70% EtOH (freshly prepared and filtered) for 1 h at RT. The samples were dehydrated in a graded ethanol series (90% EtOH, 96% EtOH, 100% EtOH) and embedded in SPURR epoxy resin (Serva, Heidelberg, Germany, #21,050). […]

HeLa GRASP55 KO cells [1] = assay: Transmission electron microscopy of Golgi apparatus, HeLa GRASP55 KO; type: cell-based; conditions: 10 nM, 24 h
Procedure: as §4

HeLa GRASP55 KO cells [2] = conditions: 24 h treatment, GRASP55 KO vs wt
GRASP55 [3] = molecular target: T3, GRASP55 (Homo sapiens, UniProt Q9H8Y8); assay: Thermal proteome profiling temperature range (TPP-TR/RTSA), GRASP55; type: binding; design: GRASP55 protein quantification from the non-denatured protein fractions of prodigiosin or DMSO treated HeLa cells; endogenous in cells; host or cells: HeLa wt cells; conditions: 100 nM, 6 h, HeLa wt, collation ratio
Procedure: as §1, §2, §3

GRASP55 [4] = molecular target: T3, GRASP55; assay: CETSA (immunoblot quantification of non-denatured GRASP55); type: binding; design: GRASP55 protein quantification from the non-denatured protein fractions of prodigiosin or DMSO treated HeLa cells; endogenous in cells; host or cells: HeLa wt cells; conditions: 100 nM, 6 h, HeLa wt, collation ratio
Procedure: as §2, with “h. For thermal proteome profiling compound concentration range (TPP-CCR) experiments, 2.35*10^6 HeLa wt cells were seeded per 10 cm dish and, on the next day, incubated with the indicated final concentrations (Table 1) of prodigiosin (in final 0.1% v/v DMSO in cell culture medium) for 6 h.” for “h.”
as §3

CCCCCC1=C/C(=C/c2[nH]c(-c3ccc[nH]3)cc2OC)N=C1C [Prodigiosin, prodigiosin]
meanlog2Ratio36.5C (JUNB): 0.7033
meanlog2Ratio36.5C (EFEMP1): 0.6341
meanlog2Ratio36.5C (JUN): 0.7116
meanlog2Ratio36.5C (SDC4): 0.3904
ratio between disorganized membranes and distinguishable Golgi stacks (HeLa wt cells): clearly increased
ratio between disorganized membranes and distinguishable Golgi stacks (HeLa GRASP55 KO cells [1]): no change
IC50 of KO cells relative to wt cells (HeLa GRASP55 KO cells [2]): approximately threefold
col.ratio GRASP55 (TPP-TR) (GRASP55 [3]): 1.1
col.ratio GRASP55 (CETSA) (GRASP55 [4]): 5.5
